For the test, the system named is breast cancer cell line HCC1954. In words: In vitro cytotoxicity study, breast cancer cell line HCC1954 (Cell Titer-Glo, 72 hours). Format: cell-based. To be noted: HCC1954, 72 hours treatment, 0.00015-1 μg/ml; study ADC compared with control ADC-HA. How it is done: Breast cancer cell line HCC1954 was grown in RPM11640 medium supplemented with 10% fetal bovine serum and maintained in an atmosphere of 5% CO2 in a humidified 37° C. incubator. The day before treatment, cells were collected and seeded into 96-well plates (2,000 cells per well). On the second day, cells were treated with a dilute concentration of Herceptin and ADCs of this invention (1, 0.3333, 0.1111, 0.037, 0.0123, 0.0041, 0.0014, 0.00046 and 0.00015 μg/ml). Each treatment was performed in triplicate. After 72 hours treatment, cell viability was assessed by Cell Titer-Glo kit (Promega) according to the manufacturer's instruction.

Herceptin: the “antiproliferative activity: inhibition on the growth of breast cancer cell line HCC1954 in vitro” value was “ineffective”.

The values are drawn from patent US10280229B2, “Linkers and their application towards ADC” (MEDSHINE DISCOVERY INC., priority 2014, dated 2019).
